{"source": "patent US11389469B2", "about": "“Targeting NAD+ to treat chemotherapy and radiotherapy induced cognitive impairment, neuropathies and inactivity” (NewSouth Innovations Pty Ltd, priority 2015, dated 2022)", "system": "brain", "assay": "Molecular response to chemotherapy in the brain during NMN treatment", "format": "in vivo", "details": "doxorubicin with NMN treatment, mice; prophetic example", "source_text": "In this prophetic example, we propose performing a detailed characterization of the molecular pathways through which NMN protects against CIPN and CICI. We will repeat doxorubicin with NMN treatment or in NMNAT1 and NMNAT3 transgenic mice as in Examples 3 and 5, and cull animals one week post doxorubicin to obtain tissues for the molecular analyses described below. For NMN treatment as listed in Hypothetical Example 3, we will use a strain of transgenic reporter mice, which allow non-invasive imaging of cellular senescence caused by toxins such as chemotherapy. We will in addition repeat doxorubicin treatment in NMNAT1 and NMNAT3 transgenic mice and their WT littermates as described in Example 5.\nMitochondrial function will be assessed in freshly isolated brain mitochondria, and activity of each complex of the electrode transport chain will be assessed in a dissolved oxygen Clarke-type electrode as previously described and as shown in FIG. 3. Substrates and inhibitors that are specific for each complex of the electron transport chain will be added, allowing calculation of activity of each complex.\nApoptosis will be measured through western blotting for cleaved caspase 3 and γH2AX. DNA damage and PARP activity will be assessed by western blotting for poly-ADP ribose (PAR). Immunohistochemical analysis of apoptosis will be assessed as described below. […]"}
{"substance": "Nicotinamide Mononucleotide [NMN]", "values": [{"measurement": "protection against chemotherapy induced loss of NAD+, impaired mitochondrial function, neuronal toxicity, cellular senescence, and apoptosis", "result": "protect"}]}
